Here are results for four molecules from patent publication US9765037B2 (dated 2017).

The chains behind the UniProt entries cited, without tags or fusion partners. Residues count along the entry.
UniProt A3FQ16, 1-538: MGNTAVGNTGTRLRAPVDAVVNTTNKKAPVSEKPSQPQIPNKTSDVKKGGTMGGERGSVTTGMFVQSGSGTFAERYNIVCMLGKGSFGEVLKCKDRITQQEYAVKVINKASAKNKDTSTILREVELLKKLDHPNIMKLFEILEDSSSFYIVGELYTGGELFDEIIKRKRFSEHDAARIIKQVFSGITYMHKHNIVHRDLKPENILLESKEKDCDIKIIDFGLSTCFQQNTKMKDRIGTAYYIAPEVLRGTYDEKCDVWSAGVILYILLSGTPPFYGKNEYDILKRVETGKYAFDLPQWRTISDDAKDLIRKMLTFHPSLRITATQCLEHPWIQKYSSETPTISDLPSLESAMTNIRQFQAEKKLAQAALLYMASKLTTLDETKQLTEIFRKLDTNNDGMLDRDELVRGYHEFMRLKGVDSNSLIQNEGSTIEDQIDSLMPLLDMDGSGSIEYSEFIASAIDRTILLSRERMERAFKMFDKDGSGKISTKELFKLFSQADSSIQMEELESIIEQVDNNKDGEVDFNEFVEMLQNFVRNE
UniProt Q9BJF5, 1-507: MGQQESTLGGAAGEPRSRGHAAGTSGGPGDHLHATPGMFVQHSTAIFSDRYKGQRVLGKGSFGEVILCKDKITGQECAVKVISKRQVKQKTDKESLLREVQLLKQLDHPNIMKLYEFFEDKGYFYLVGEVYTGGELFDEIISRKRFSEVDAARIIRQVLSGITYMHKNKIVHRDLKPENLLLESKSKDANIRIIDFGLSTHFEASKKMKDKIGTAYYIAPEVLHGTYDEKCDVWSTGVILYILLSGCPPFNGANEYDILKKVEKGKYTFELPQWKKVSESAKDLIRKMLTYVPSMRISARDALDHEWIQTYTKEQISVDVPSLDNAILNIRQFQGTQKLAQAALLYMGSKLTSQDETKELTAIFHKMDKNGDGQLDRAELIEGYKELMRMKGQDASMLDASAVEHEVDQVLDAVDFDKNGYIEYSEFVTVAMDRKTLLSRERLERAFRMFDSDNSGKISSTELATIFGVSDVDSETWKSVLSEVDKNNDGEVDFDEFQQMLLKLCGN

One may read the IC50 as the concentration at which inhibition is half-maximal.

One experiment has as its target CpCDPK1 (Cryptosporidium parvum (strain Iowa II), UniProt A3FQ16).
The subject of experiment [1] is P. falciparum NF-54 strain gametocytes. The class given is cell-based, Plasmodium falciparum.
A further experiment has as its target TgCDPK1 (Toxoplasma gondii, UniProt Q9BJF5). Nature of the experiment: biochemical. As to conditions: IC50 values.

Several values for one entry are separate records, joined by “and”; a condition that tells them apart may be missing. Identical values can stand only once. Entries after “also recorded” stand apart in the source; their conditions may differ. Like-named read-outs stand apart in the source and are kept apart here.

Regarding `CC(C)n1nc(-c2ccc3ccccc3c2)c2c(N)ncnc21` [Compound 7p, 1-isopropyl-3-(naphthalen-2-yl)-1H-pyrazolo[3,4-d]pyrimidin-4-amine], at CpCDPK1 (read-out: CpCDPK1 IC50), the IC50 is 0.01 µM.
With `CC(C)Oc1ccc2cc(-c3nn(C(C)C)c4ncnc(N)c34)ccc2c1` [Compound 11, 3-(6-isopropoxynaphthalen-2-yl)-1-isopropyl-1H-pyrazolo[3,4-d]pyrimidin-4-amine], the IC50 at CpCDPK1 (read-out: IC50 (μM) CpCDPK1) is 0.0573 µM.
Regarding `CCOc1ccc2cc(-c3nn(CC4CCNCC4)c4ncnc(N)c34)ccc2c1` [Compound 29, 3-(6-ethoxynaphthalen-2-yl)-1-(piperidin-4-ylmethyl)-1H-pyrazolo[3,4-d]pyrimidin-4-amine], the “prevalence of oocyst infections” value in experiment [1] (100 nM) is on record as “reduced the prevalence of oocyst infections”. Besides, in experiment [1] (1 μM or 3 μM), the “infection of A. stephensi midguts” value was “prevented”. In experiment [1] (3 μM), the “infective sporozoites in dissected salivary glands of A. stephensi” value is on record as “complete absence of infective sporozoites”. In addition, the P. falciparum exflagellation entry in experiment [1] (1 and 3 μM final concentration in blood) was “complete suppression; also recorded: prevented the exflagellation of microgametes”. The “P. falciparum exflagellation events, repeat experiment” value in experiment [1] (1 or 3 μM) is listed as “suppressed completely”.
In the case of `CC(C)(C)n1nc(-c2cccc3ccccc23)c2c(N)ncnc21` [NA-PP1], the IC50 on TgCDPK1 is 989 nM and 978 nM.
